# Literature values as cited in US11484575B2, “Compositions and methods comprising bone morphogenetic protein and NEMO binding peptide” (Cedars-Sinai Medical Center, priority 2018, dated 2022).
# System: spine fusion
# Conditions: total dose of 30 μg rhBMP-2/side/rat; cited from earlier work
substance,measurement,value
rhBMP-2: Recombinant human bone morphogenic protein-2 used to enhance bone formation in spine surgery,spine fusion,100%
